Series [1] concerns MKN45 gastric cancer cells. The experiment in a line: In vitro cell proliferation analysis (CellTiter-Glo). The class given is cell-based, human. Conditions: 0.008 ug/ml, 72 hours. The method, then:
In order to identify anti-cancer effects of the 4 types of antibodies having improved affinities, as prepared in Example 5, in vitro cell proliferation analysis was performed using MKN45 gastric cancer cells on which c-Met is expressed (Japanese Cancer Research Bank, JCRB, Tokyo, Japan).
1×10^4 MKN45 cells suspended in 50 ul of 5% (w/v) FBS/DMEM culture medium were introduced to each well of a 96-well plate. Then, the cells were either not treated or were treated with 50 ul of the 4 types of antibodies at a concentration of 0.008, 0.04, 0.2, or 1 ug/ml. After incubating for 72 hours, the number of cells was quantified by using a CellTiter-Glo Luminescent Cell Viability Assay Kit (Promega, G7570) with a leuminometer (PerkinElmer, 2104 Multilabel reader).
In order to identify anti-cancer effects of the three types of antibodies prepared in Example 11, in vitro cell proliferation analysis was performed using MKN45 gastric cancer cells having c-Met on the cell membrane (Japanese Cancer Research Bank, JCRB, Tokyo, Japan).
1×10^4 MKN45 cells suspended in 50 ul of 5% (w/v) FBS/DMEM culture medium were introduced to each well of a 96-well plate. […] After incubating for 72 hours, the number of cells was quantified by using a CellTiter-Glo Luminescent Cell Viability Assay Kit (Promega, G7570) with a leuminometer (PerkinElmer, 2104 Multilabel reader).
On the technique in general: Cellular ATP, detected with luciferase, serves as a proxy for viable cell number.

The test system of a further series is Akt. The series can be described thus: Akt phosphorylation in Caki-1 cells (phospho-AKT1 Ser473 ELISA). Type of series: cell-based. As to conditions: 5 ug/ml, 30 minutes, serum free; 5D5 = 100%. The method, then: To compare agonism of the 4 types of antibodies having improved affinities, as prepared in Example 5, Caki-1 cells (Korean Cell Line Bank) were used to confirm the degree of Akt phosphorylation. Mouse IgG was used as a negative control, and antibody 5D5 (a known agonist) was used as a positive control.
2×10^5 cells/ml of Caki-1 cells were introduced to a 96-well plate, and after 24 hours, each of 5 ug/ml of the antibodies was treated in serum free medium for 30 minutes. Lysis of the cells treated with the antibodies was performed and the degree of Akt phosphorylation was measured using a PathScan phospho-AKT1 (Ser473) chemiluminescent Sandwich ELISA kit (Cell Signaling, cat. no #7134S).
To compare agonism of the 3 types of antibodies having improved affinities, as prepared in Example 11, Caki-1 cells (Korean Cell Line Bank) were used to confirm the degree of Akt phosphorylation. Mouse IgG was used as a negative control, and a 5D5 antibody (a known agonist) was used as a positive control.
2×10^5 cells/ml of Caki-1 cells were introduced to a 96-well plate, and after 24 hours, each of 5 ug/ml of the antibodies was treated in serum free medium for 30 minutes. Lysis of the cells treated with antibodies was performed and a degree of Akt phosphorylation inhibition was measured using a PathScan phospho-AKT1 (Ser473) a chemiluminescent Sandwich ELISA kit (Cell Signaling, cat. no #7134S).

These results are taken from patent US20140154251A1, “ANTI C-MET ANTIBODY AND USES THEREOF” (Samsung Electronics Co., Ltd., priority 2011, published 2014).

B1: huAbF46: humanized anti-c-Met antibody from chAbF46, combination of H4-heavy chain and H4-light chain (antibody)
heavy: EVQLVESGGGLVQPGGSLRLSCAASGFTFTDYYMSWVRQAPGKGLEWLGFIRNKANGYTTEYSASVKGRFTISRDNSKNTLYLQMNSLRAEDTAVYYCARDNWFAYWGQGTLVTVSSASTKGPSVFPLAPSSKSTSGGTAALGCLVKDYFPEPVTVSWNSGALTSGVHTFPAVLQSSGLYSLSSVVTVPSSSLGTQTYICNVNHKPSNTKVDKKV[sequence of human IgG1 Fc omitted]
light: DIQMTQSPSSLSASVGDRVTITCKSSQSLLASGNQNNYLAWHQQKPGKAPKMLIIWASTRVSGVPSRFSGSGSGTDFTLTISSLQPEDFATYYCQQSYSAPLTFGQGTKVEIKRTVAAPSVFIFPPSDEQLKSGTASVVCLLNNFYPREAKVQWKVDNALQSGNSQESVTEQDSKDSTYSLSSTLTLSKADYEKHKVYACEVTHQGLSSPVTKSFNRGE
B1 gave a relative cell viability in series [1] of 77%. In addition, the “degree of Akt phosphorylation” value in the series on Akt was determined as 29.06%.
